Here are results for three substances from patent publication US20240166755A1, “CHIMERIC ANTIGEN RECEPTORS TARGETING CANCER” (University of Southern California, priority 2016, published 2024).

The subject of assay [1] is Blinatumomab induced cell death of RAJI-GLuc cells mediated by T cells. Briefly: Blinatumomab-induced, T cell-mediated death of RAJI-GLuc cells and its block by drugs (GLuc assay). The assay is classed as cell-based, human. Particulars: Blinatumomab 100 ng/10^6 cells, T cells E:T 1:1, 96 hours.
The test system of assay [2] is RAJI-GLuc cells. Description: ELISA of IFNγ in supernatant of RAJI-GLuc cells with Blinatumomab and T cells. The following applies: Blinatumomab in the presence of T cells.
The subject of assay [3] is primary T cells and PBMC. Briefly: Immortalization: long term proliferation of primary lymphocytes after IL2 withdrawal (Table 26). Particulars: for long term proliferation in culture after IL2 withdrawal: PBMC and T cells infected with lentiviral vector, blasticidin selected. The assay is classed as cell-based, human. Here is the method: The nucleotide and protein sequences of K13 are provided in SEQ ID NOs: 866 and 2629, respectively. Approximately 1 day post-infection, cells were selected with blasticidin. After selection, the cells were grown in XVIVO medium and IL2 withdrawn.

Consider “Blinatumomab: bispecific CD19-directed CD3 T cell engager (BiTE) antibody construct”, for which the “death of RAJI-GLuc cells” value in assay [1] was “strong induction of death”. Further, the IFNγ production entry in assay [2] is “strong induction of IFNγ production”.
As for “HTLV1-Tax: HTLV1-encoded Tax protein [reference compound]”, the “long term proliferation in culture after IL2 withdrawal” value in assay [3] is given as “continued to proliferate in culture long after IL2 withdrawal”.
Consider “K13-Flag: C-terminal Flag-tagged viral FLICE inhibitory protein K13 of Kaposi's sarcoma associated herpesvirus”, for which, in assay [3] (CD3+ve T cells infected with lentiviral vector, after IL2 withdrawal), the “immortalization of primary lymphocytes, T-cells” value was “+”. Also, in assay [3] (CD3-ve cells (designated B cells) infected with lentiviral vector, after IL2 withdrawal), the “immortalization of primary lymphocytes, B-cells” value is recorded as “−”. Besides, the “long term proliferation in culture after IL2 withdrawal” value in assay [3] is reported as “continued to proliferate in culture long after IL2 withdrawal”. Moreover, the “immortalization of primary lymphocytes, PBMCs” value in assay [3] (PBMCs infected with lentiviral vector, after IL2 withdrawal) was “+”.
